Experimental data from ChEMBL document CHEMBL1128641, “N-3-substituted pyrimidinones as potent, orally active, AT1 selective angiotensin II receptor antagonists” (J Med Chem, 1995).

Amino acid sequences for entries named in this document (tags omitted). A change or cut given only in a name is not applied to a line headed by its entry.
UniProt P29089: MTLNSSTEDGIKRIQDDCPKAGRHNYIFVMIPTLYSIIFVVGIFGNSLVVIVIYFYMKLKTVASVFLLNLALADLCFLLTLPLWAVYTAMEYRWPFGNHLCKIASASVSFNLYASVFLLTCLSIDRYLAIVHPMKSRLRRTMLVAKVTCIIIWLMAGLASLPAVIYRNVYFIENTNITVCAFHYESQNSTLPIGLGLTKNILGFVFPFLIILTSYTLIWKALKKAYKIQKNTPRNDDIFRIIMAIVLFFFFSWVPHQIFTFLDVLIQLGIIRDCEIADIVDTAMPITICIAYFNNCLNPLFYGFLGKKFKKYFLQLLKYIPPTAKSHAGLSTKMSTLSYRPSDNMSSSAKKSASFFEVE
UniProt P25095: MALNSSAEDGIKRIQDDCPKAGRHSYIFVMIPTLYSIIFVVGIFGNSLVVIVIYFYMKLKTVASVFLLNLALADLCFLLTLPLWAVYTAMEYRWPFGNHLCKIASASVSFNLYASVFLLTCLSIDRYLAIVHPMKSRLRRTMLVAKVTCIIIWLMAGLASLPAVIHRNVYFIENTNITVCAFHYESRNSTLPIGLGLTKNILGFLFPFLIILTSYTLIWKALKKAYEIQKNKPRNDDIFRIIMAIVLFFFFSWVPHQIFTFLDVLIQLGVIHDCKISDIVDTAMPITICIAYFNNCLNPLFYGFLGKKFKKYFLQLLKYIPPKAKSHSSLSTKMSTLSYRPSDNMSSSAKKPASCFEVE

Target: Angiotensin II receptor (AT-1) type-1 (Rattus norvegicus, UniProt P29089+P25095)
Assay: Displacement of [3H]angiotensin II from Angiotensin II type 1 receptor in rat adrenal cortical membrane
Assay type: cell membranes

CCCCc1ncn(Cc2ccc(C(=O)O)cc2)c(=O)c1Cc1ccc(-c2ccccc2C(=O)O)cc1
Ki: 5.137 µM
